Values of other authors, collected in patent US20170285044A1, “METHODS FOR PREDICTING AND IMPROVING THE SURVIVAL OF GASTRIC CANCER PATIENTS” (Pierian Holdings, Inc., priority 2011, published 2017).

Test system: HER2(+) gastric cancers
Settings: trastuzumab plus standard chemotherapy; cited from earlier work

trastuzumab: HER2 targeting antibody
overall response rate: 47%
